Series [1] concerns patients with AUD. The series can be described thus: Drinking behavior (TLFB, units of alcohol per week), open-label MDMA-assisted therapy study in AUD post-detox (Example 8). The series is classed as in vivo, human. The settings on record: 3 months post-detox; 130.6 units per week in the month before detox; 14 participants; two sessions of 125 mg + 62.5 mg MDMA.
Series [2] relates to patients with AUD. The series can be described thus: Physiological measures, SUDS and Drug Effects during MDMA sessions (Example 8). Type of series: in vivo, human. The settings on record: two hours after initial dose of 125 mg MDMA; regular antihypertensive not taken. As to the method:
Dosing with MDMA occurred twice during the eight-week course on weeks 3 and 6.
Physiological and tolerability effects during MDMA sessions: In total, 26 drug-assisted psychotherapy sessions with MDMA were administered during the trial. Temperature, blood pressure and heart rate were measured at t=0, before taking MDMA, then half-hourly up to t=2 hours, then hourly thereafter for a minimum of 6-hours from the time of dosing (see FIG. 7).
Subjective Units of Distress (SUDS) and Participant report of Drug Effects were also measured, hourly, throughout the MDMA sessions (see FIG. 7). […] Participants gave their own subjective score (0-10) of whether they felt Drug Effects, and the therapists also recorded their own objective score of how “altered” the participant appeared. There was no significant difference between Observers' and Participants' Drug Effects scores. Drug Effects rose expectedly over the first two hours, with a notable further increase after the booster dose was given at t=2 hours, and a subsequent plateau then decline over the following six hours.

Each structure is given as a SMILES string.

Regarding `CNC(C)Cc1ccc2c(c1)OCO2` (centres unmarked) [MDMA, 1-(1,3-benzodioxol-5-yl)-N-methylpropan-2-amine], the “units of alcohol per week” value in the series on patients with AUD [1] is recorded as 16.9 units of alcohol per week. The “blood pressure (BP), transient abnormal rise in one participant” value with patients with AUD [2] is 183/118.

(Values after patent US20260240805A1, “ENTACTOGEN-ASSISTED THERAPY FOR ALCOHOL USE DISORDER AND ADDICTION-RELATED CONDITIONS AND COMORBIDITIES” (Solvonis Therapeutics Ireland Holdings Limited, priority 2021, published 2026).)
